Measurements from ChEMBL document CHEMBL4359816, “Discovery and Optimization of Quinolinone Derivatives as Potent, Selective, and Orally Bioavailable Mutant Isocitrate Dehydrogenase 1 (mIDH1) Inhibitors” (J Med Chem, 2019).
pIC50: −log10 of the molar value.

Protein sequences, listed by entry. Tags and fused reporters are not part of them. Residues count along the entry.
UniProt O75874, 2-414 R132C limits assumed: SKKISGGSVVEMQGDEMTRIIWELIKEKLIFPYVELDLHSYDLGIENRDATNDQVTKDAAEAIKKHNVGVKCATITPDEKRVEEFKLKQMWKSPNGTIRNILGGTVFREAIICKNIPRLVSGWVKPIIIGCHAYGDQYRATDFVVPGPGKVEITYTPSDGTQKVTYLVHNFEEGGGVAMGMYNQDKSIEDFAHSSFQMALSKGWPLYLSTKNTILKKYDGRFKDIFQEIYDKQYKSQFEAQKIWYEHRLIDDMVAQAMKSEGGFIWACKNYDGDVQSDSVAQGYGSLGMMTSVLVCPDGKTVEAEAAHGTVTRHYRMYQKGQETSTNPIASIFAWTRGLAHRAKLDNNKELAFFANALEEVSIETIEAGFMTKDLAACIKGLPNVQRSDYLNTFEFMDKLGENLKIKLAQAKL

Key:
[1] = target: T1, Isocitrate dehydrogenase [NADP] cytoplasmic (Homo sapiens, UniProt O75874, R132C); assay: Inhibition of human Myc-DDK-tagged IDH1 R132C mutant assessed as reduction in NADPH consumption pre-incubated for 15 mins followed by alpha-ketoglutarate substrate and NADPH addition after 45 mins by diaphorase and resazurin dye based assay
[2] = target: T1, Isocitrate dehydrogenase [NADP] cytoplasmic; assay: Inhibition of IDH1 R132C mutant in human HCT116 cells assessed as reduction in 2-HG levels after 24 hrs by RapidFire high-throughput mass spectrometry assay; assay type: cell-based

pIC50 [1]: 6.75 | pIC50 [2]: 6.39
SMILES: COc1cc(N[C@@H](C)c2cc3cc(Cl)ccc3[nH]c2=O)ncc1C#N
